This assay deals with rhTRAIL (Histidine tag, R&D Systems) (human) (UniProt P50591). The experiment in a line: cell-based or functional assay.

By UniProt entry, the sequences of proteins in these tests, tags left out. Residues count along the entry.
UniProt P50591, 114-281 limits assumed: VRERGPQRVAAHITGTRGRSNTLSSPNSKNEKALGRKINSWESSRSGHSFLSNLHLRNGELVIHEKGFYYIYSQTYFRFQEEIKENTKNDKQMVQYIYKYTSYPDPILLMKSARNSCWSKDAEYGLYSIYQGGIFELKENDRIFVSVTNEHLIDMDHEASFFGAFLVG

Turning to “Recombinant human OPG-Fc fusion protein (Novo Protein) (from UniProt O00300 22-401)”, the inhibition of rhTRAIL-induced apoptosis of L929 cells (crystal violet staining) was found to be 0.27 nM.

The values above are taken from patent US20230203204A1.
